ChEMBL document CHEMBL6177999, “Discovery of 3-(Fluoro-imidazolyl)pyridazine Derivatives as Potent STING Agonists with Antitumor Activity” (J Med Chem, 2025)
pKd: −log10 of the molar value.

Amino acid sequences for entries named in this document (tags omitted).
UniProt Q86WV6, whole entry, looked up, stated change not applied: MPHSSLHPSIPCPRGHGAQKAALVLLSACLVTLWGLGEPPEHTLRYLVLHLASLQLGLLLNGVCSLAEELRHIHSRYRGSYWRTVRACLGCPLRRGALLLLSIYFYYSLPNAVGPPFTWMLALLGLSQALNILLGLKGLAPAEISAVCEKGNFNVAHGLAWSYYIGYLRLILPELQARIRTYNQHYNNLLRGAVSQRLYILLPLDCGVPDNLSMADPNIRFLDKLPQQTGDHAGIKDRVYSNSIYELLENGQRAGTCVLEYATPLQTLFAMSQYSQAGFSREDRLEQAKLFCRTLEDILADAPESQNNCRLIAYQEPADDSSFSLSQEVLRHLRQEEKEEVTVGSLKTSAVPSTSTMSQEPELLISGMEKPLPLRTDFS
UniProt Q86WV6, whole entry R293Q: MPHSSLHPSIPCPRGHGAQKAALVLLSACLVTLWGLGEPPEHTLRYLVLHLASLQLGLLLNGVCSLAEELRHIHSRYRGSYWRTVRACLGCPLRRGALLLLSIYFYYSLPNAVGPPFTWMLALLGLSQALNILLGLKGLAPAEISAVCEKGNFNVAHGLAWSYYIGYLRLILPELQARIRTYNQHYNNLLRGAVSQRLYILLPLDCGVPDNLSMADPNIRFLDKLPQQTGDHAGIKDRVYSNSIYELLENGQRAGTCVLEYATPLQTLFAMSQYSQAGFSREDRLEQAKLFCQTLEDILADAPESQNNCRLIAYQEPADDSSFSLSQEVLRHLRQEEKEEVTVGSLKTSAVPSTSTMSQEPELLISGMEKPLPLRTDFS
UniProt Q86WV6, whole entry G230A/R293Q: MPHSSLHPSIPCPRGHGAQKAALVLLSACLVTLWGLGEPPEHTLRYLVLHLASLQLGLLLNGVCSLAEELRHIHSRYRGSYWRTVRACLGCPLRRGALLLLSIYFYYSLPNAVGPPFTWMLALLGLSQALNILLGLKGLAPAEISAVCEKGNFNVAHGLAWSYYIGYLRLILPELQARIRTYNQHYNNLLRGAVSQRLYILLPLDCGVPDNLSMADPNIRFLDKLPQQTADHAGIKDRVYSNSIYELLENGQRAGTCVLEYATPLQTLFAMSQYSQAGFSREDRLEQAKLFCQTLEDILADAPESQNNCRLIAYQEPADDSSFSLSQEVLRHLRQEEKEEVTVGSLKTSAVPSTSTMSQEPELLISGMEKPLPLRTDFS

Assays:
[1] = system: Stimulator of interferon genes protein (Homo sapiens), Q86WV6 [UNDEFINED MUTATION]; details: dose 50.0 µM, time 45.0 min
[2] = system: B16-F10; test: animal or person; details: Mus musculus, B16-F10, read-out: TGI
[3] = in vivo; details: female, C57BL/6, mouse, iv, 10 mg/kg
[4] = in vivo; details: female, C57BL/6, mouse, iv, 10 mg/kg; remark: listed apart in the source
[5] = in vivo; details: female, C57BL/6, mouse, iv, 10 mg/kg; remark: listed apart in the source
[6] = system: B16-F10; test: animal or person; details: Mus musculus, B16-F10, read-out: TGI; remark: listed apart in the source
[7] = Clearance in female C57BL/6 mouse at 10 mg/kg, iv measured up to 24 hrs by LC-MS/MS analysis; details: in vivo
[8] = system: B16-F10; details: Mus musculus, dose 5-10 mg/kg, route iv, time 12.0 day
[9] = in vivo; details: female, C57BL/6, mouse, iv, 10 mg/kg; remark: listed apart in the source
[10] = molecular target: T1, Stimulator of interferon genes protein (Mus musculus) (UniProt Q3TBT3); details: dose 50.0 µM, time 45.0 min
T1 sequence (whole entry): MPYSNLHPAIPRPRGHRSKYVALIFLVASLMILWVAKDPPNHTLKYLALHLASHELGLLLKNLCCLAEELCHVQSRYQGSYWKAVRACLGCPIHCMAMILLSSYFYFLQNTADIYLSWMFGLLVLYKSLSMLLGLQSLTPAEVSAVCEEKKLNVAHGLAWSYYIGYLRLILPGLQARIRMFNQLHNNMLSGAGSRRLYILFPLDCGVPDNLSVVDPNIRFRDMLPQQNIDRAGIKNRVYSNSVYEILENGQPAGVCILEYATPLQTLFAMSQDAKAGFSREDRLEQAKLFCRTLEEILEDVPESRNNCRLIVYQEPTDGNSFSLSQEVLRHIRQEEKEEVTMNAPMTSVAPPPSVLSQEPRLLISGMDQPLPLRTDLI

[11] = system: Stimulator of interferon genes protein (Homo sapiens), Q86WV6 [UNDEFINED MUTATION]; details: filed as agonist, dose 200.0 µM
[12] = molecular target: T2, Stimulator of interferon genes protein (Homo sapiens, UniProt Q86WV6); details: dose 50.0 µM, time 45.0 min
[13] = system: Stimulator of interferon genes protein (Homo sapiens), Q86WV6 [UNDEFINED MUTATION]; details: filed as agonist, dose 200.0 µM; remark: listed apart in the source
[14] = system: Stimulator of interferon genes protein (Homo sapiens), Q86WV6 [R293Q]; details: dose 50.0 µM, time 45.0 min
[15] = system: Stimulator of interferon genes protein (Homo sapiens), Q86WV6 [UNDEFINED MUTATION]; details: filed as agonist, dose 200.0 µM; remark: listed apart in the source
[16] = system: Stimulator of interferon genes protein (Homo sapiens), Q86WV6 [G230A,R293Q]; details: dose 50.0 µM, time 45.0 min
[17] = molecular target: T2, Stimulator of interferon genes protein

Compound `CC#Cc1cc(NC(=O)c2ccc(-n3cnc(F)c3)nn2)c(C(=O)O)cc1F` has a ΔTm [1] of 8.5 °C.
`C=Cc1cc(NC(=O)c2ccc(-n3cnc(F)c3)nn2)c(C(=O)O)cc1F` gave a ΔTm [1] of 8 °C.
With `C#Cc1cc(NC(=O)c2ccc(-n3cnc(C)c3)nn2)c(C(=O)O)cc1F` the ΔTm [1] was 8 °C.
`O=C(Nc1cc(C#CC2CC2)c(F)cc1C(=O)O)c1ccc(-n2cnc(F)c2)nn1` showed a ΔTm [1] of 1 °C.
`C#Cc1cc(NC(=O)c2ccc(-n3cnc(Cl)c3)nn2)c(C(=O)O)cc1F` gave a ΔTm [1] of 9 °C.
`O=C(Nc1cc(F)c(F)cc1C(=O)O)c1ccc(-n2cnc(F)c2)nn1` gave a ΔTm [1] of 5.5 °C.
`C#Cc1cc(NC(=O)c2ccc(-n3cnc(F)c3)nn2)c(C(=O)[O-])cc1F.[Li+]` showed an inhibition in vivo at 5 mg/kg [2] of 51.2%, a half-life at 24 h [3] of 7.65 h and a Vd at 24 h [4] of 3.5 L/kg. The AUC(0-inf) at 24 h [5] was 14900 ng·h/mL, the inhibition in vivo at 10 mg/kg [6] was 74.5% and the clearance at 24 h [7] was 11.2 mL/min/kg. For the same compound, the inhibition [8] was “Active; Compound Exceeded The Efficacy Of Sr-# Treatment Group” and the AUC(0-t) at 24 h [9] was 14100 ng·h/mL.
With `CCOc1cc(C(=O)O)c(NC(=O)c2ccc(-n3cnc(F)c3)nn2)cc1Br` the ΔTm [1] was 6.5 °C.
`COc1cc(C(=O)O)c(NC(=O)c2ccc(-n3cnc(F)c3)nn2)cc1Br` gave a ΔTm [1] of 13 °C.
Compound `O=C(Nc1cc(Br)c(OC2CC2)cc1C(=O)O)c1ccc(-n2cnc(F)c2)nn1` has a ΔTm [1] of 4 °C.
Compound `CCc1cc(NC(=O)c2ccc(-n3cnc(F)c3)nn2)c(C(=O)O)cc1F` has a ΔTm [1] of 1.5 °C.
With `C#Cc1cc(NC(=O)c2ccc(-n3cnc(Br)c3)nn2)c(C(=O)O)cc1F` the ΔTm [1] was 4 °C.
Work on `O=C(Nc1cc(F)c(F)cc1C(=O)O)c1ccc(-n2ccnc2)nn1` yielded a ΔTm [10] of 7.5 °C, a deltaH [11] of 2.1 kcal/mol and a ΔTm [12] of 7 °C. The -TdeltaS [13] was -10.7 kcal/mol and the ΔTm [14] was 8 °C.
Work on `O=C(Nc1cc(C2CC2)c(F)cc1C(=O)O)c1ccc(-n2cnc(F)c2)nn1` yielded a ΔTm [1] of 2 °C.
With `C=C(C)c1cc(NC(=O)c2ccc(-n3cnc(F)c3)nn2)c(C(=O)O)cc1F` the ΔTm [1] was 0.5 °C.
`O=C(Nc1cc(Cl)c(F)cc1C(=O)O)c1ccc(-n2cnc(F)c2)nn1` showed a deltaG [15] of -9.09 kcal/mol, a ΔTm [10] of 9 °C and a ΔTm [16] of 24 °C. It also gave a deltaH [11] of -3.84 kcal/mol, a ΔTm [1] of 11 °C and a ΔTm [12] of 11 °C. The -TdeltaS [13] was -5.26 kcal/mol, the ΔTm [14] was 12.5 °C and the pKd [17] was 6.67.
`C#Cc1cc(NC(=O)c2ccc(-n3cnc(F)c3)nn2)c(C(=O)O)cc1Br` gave a ΔTm [1] of 8.5 °C.
In the case of `C=CCc1cc(NC(=O)c2ccc(-n3cnc(F)c3)nn2)c(C(=O)O)cc1F`, the ΔTm [1] was 1.5 °C.
`Cc1cc(NC(=O)c2ccc(-n3cnc(F)c3)nn2)c(C(=O)O)cc1F` showed a ΔTm [1] of 4.5 °C.
`CCc1cc(C(=O)O)c(NC(=O)c2ccc(-n3cnc(F)c3)nn2)cc1F` gave a ΔTm [1] of 3 °C.
Compound `C#Cc1cc(NC(=O)c2ccc(-n3ccnc3)nn2)c(C(=O)O)cc1F` has a ΔTm [1] of 15.5 °C.
`C#Cc1cc(NC(=O)c2ccc(-n3cnc(C(F)(F)F)c3)nn2)c(C(=O)O)cc1F` showed a ΔTm [1] of 10 °C.
Work on `O=C(Nc1cc(Br)c(F)cc1C(=O)O)c1ccc(-n2cnc(F)c2)nn1` yielded a deltaG [15] of -8.94 kcal/mol, a ΔTm [10] of 7.5 °C and a ΔTm [16] of 29.5 °C. It also gave a deltaH [11] of -4.18 kcal/mol, a ΔTm [1] of 12.5 °C and a ΔTm [12] of 11.5 °C. The -TdeltaS [13] was -4.76 kcal/mol, the ΔTm [14] was 13.5 °C and the pKd [17] was 6.55.
